# AlphaSeq binding of Ab-14 light chain variants to a spike HR2 peptide

Target: peptide PDVDLGDISGINAS, taken from heptad repeat 2 (HR2) of SARS-CoV-2 spike.

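Phage display of a naive human antibody library on the peptide gave the parent. Variants in AAYL50 differ from the parent at up to three CDR positions; double and triple changes were sampled at random. Affinity was read by AlphaSeq, a pooled yeast mating assay with surface-displayed partners. After mating in shaken culture at 30 °C for 16 h, diploids were selected and their barcode pairs sequenced. Each replicate has its own calibration line, from reference interactions of the BCL2 family. Each pool was mated in three replicate cultures.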

The variants keep the heavy chain, the linker and the frameworks of Ab-14 (scFv order VH, the linker GGGGSGGGGSGGGGS, VL).
VH: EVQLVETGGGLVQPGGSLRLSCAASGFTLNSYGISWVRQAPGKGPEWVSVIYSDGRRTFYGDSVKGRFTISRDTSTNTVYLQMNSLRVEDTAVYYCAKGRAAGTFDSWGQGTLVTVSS
VL: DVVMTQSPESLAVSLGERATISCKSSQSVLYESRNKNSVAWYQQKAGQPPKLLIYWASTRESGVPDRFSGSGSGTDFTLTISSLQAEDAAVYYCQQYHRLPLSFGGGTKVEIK

Each variant is given by its three light chain CDRs, as the data file delimits them; those of the parent are KSSQSVLYESRNKNSVA, WASTRES, QQYHRLPLS.
Values are log10 of the apparent Kd in nM; lower means stronger binding.
Where no diploid with the target was found in that replicate, the entry reads "n.d.": below detection, most likely a poor binder, though not proof of it.

CDR-L1	CDR-L2	CDR-L3	log10 Kd (nM) by replicate	control signals
KSQQSVLYESRNKNFVA	WASTRES	QQYHRLWLS	2.38 / 3.24 / n.d.	1 of 9 (3.50)
KSSTSVLYESRNKNSVA	WAATRES	QQYHRLPYS	2.04 / 1.73 / 1.69	3 of 9 (4.23)
KSSQSVLYESRNKNPVA	WASTIES	QQYHRLPLS	n.d. / n.d. / n.d.	1 of 9 (4.24)
KSGDSVLYESRNKNSVA	WASTRES	QQYHHLPLS	0.62 / 1.28 / 1.28	1 of 9 (2.87)
KSSQSVLYESRNKNHVA	WASTRRA	QQYHRLPLS	n.d. / 3.20 / 3.97	3 of 9 (4.68)
KSSQSVLYESRNKNSVA	WAQTRES	QQYHRLPLG	2.36 / 2.00 / 1.63	2 of 9 (3.62)
KSSQSVLYESRNKNSVA	WASTREA	QQYHRLPLS	0.54 / 0.81 / 0.65	5 of 9 (5.42)
KSSQSVLYRSRNDNSVA	WASTREC	QQYHRLPLS	3.54 / 1.50 / n.d.	0 of 9
KSSQSVLYESRNCNSVA	WACPRES	QQYHRLPLS	n.d. / n.d. / n.d.	2 of 9 (3.59)
KSSQSVWYESRKKNSVA	WASTRFS	QQYHRLPLS	1.37 / 1.81 / 2.02	2 of 9 (3.53)
KSSQWVLYEERNKNSVA	WADTRES	QQYHRLPLS	4.81 / 2.64 / n.d.	1 of 9 (3.65)
KSSQSVFYESRNKNMVA	WASTRES	QQYHRMPLS	2.60 / 2.44 / 3.51	2 of 9 (3.85)
KSAQSVLIESRNKNSGA	WASTRES	QQYHRLPLS	n.d. / n.d. / n.d.	1 of 9 (5.26)
KSSQSVLYGSRNKNSTA	WASTREY	QQYHRLPLS	n.d. / 4.71 / n.d.	1 of 9 (4.08)
KSSLSVLYESRNKNSNA	HASTRES	QQYHRLPLS	1.40 / 1.59 / 1.43	1 of 9 (4.73)
KSSQSVLYCSRNKNSVA	EASTRES	QQKHRLPLS	n.d. / n.d. / n.d.	2 of 9 (4.20)
KVSQSVLYESRFKNSVA	WASTRSS	QQYHRLPLS	0.18 / 0.48 / 0.29	2 of 9 (4.51)
KSSQSVLYESRNKNFVA	WRSTRES	QQYHRLPHS	n.d. / n.d. / 3.82	0 of 9
CSSQSVLYESRNKNSVA	WASTRES	PQYHRLPLS	2.16 / 2.70 / 2.41	0 of 9
KSSQSVLYESFNKNSVA	WASTRES	QQKHNLPLS	0.40 / 0.63 / 0.44	4 of 9 (4.97)
KSSQSVLYEIRNKNSVA	WAMTRES	HQYHRLPLS	4.58 / n.d. / n.d.	1 of 9 (4.08)
KSSQSVLYESRNKNSWA	WASTRES	QQYNRLGLS	5.78 / 2.92 / n.d.	6 of 9 (4.24)
KSSQSCLYESRNKNSVA	WASSRES	QQYHRLPLL	1.52 / 1.38 / 1.25	1 of 9 (2.92)
KSKQSVLYESTNKNSVA	WASTRTS	QQYHRLPLS	n.d. / n.d. / 4.17	1 of 9 (3.50)
KSSQYVLYWSRNKNSVA	WASTRES	QQCHRLPLS	4.70 / 3.47 / 3.87	0 of 9
KSDQSILYESRNKNSVA	WASTREV	QQYHRLPLS	1.55 / 1.42 / 1.65	1 of 9 (3.79)
KSSQSALYCSRNKNSVA	WASTRES	QQYHRLPNS	n.d. / n.d. / n.d.	0 of 9
KSSQSVLYESRNKNSVA	WAETRES	QQYLRQPLS	n.d. / n.d. / n.d.	0 of 9
KSSQSVLYEWRNKGSVA	WASTRSS	QQYHRLPLS	2.39 / 1.94 / 2.14	0 of 9
WSSQSVLYESRNKNSVA	WASTSES	QQYHRIPLS	n.d. / n.d. / n.d.	0 of 9
KSSQSVLYESVNKNSVQ	WAGTRES	QQYHRLPLS	4.48 / 3.73 / n.d.	4 of 9 (4.84)
RSSGSVLYESRNKNSVA	WASTRES	HQYHRLPLS	2.48 / 2.71 / 2.78	3 of 9 (3.69)
KSSQSVLYESRNKNHVA	WASTRES	PQYHRLFLS	n.d. / 5.59 / n.d.	3 of 9 (4.33)
KSSQSVYYESRNKNKVA	WASTRES	NQYHRLPLS	n.d. / n.d. / n.d.	0 of 9
KSSQSVLYESNYKNSVA	WASTRES	FQYHRLPLS	0.69 / 1.22 / 0.86	0 of 9
KSSQSVLYESLNYNSVA	WASTRES	QQYHRLPYS	2.61 / n.d. / 1.56	0 of 9
KSSQSVLKESRQKNSVA	WWSTRES	QQYHRLPLS	n.d. / 4.29 / 4.81	7 of 9 (4.61)
KSSQSVSYESCNKNSVA	DASTRES	QQYHRLPLS	-0.07 / 0.31 / 0.08	3 of 9 (4.84)
KSSQSVLYESRNKNSVA	WAETREA	QQYHRLPRS	n.d. / n.d. / n.d.	0 of 9
KSSQSVLYEGRNKWSVA	WASTRES	QQEHRLPLS	n.d. / n.d. / n.d.	0 of 9
KSSQSVLYCSRNKNSVA	WDSIRES	QQYHRLPLS	2.09 / 2.18 / 2.91	1 of 9 (3.63)
KSSQSRLYESRNKNSVY	WAATRES	QQYHRLPLS	n.d. / n.d. / n.d.	0 of 9
KSSQSVLYESRNKNGVA	WASTRES	QQYKGLPLS	3.04 / 2.33 / 4.24	2 of 9 (4.86)
KSSQSVLYESRNKNSVA	WWSTRES	QQMHHLPLS	n.d. / n.d. / n.d.	0 of 9
WSSQTVLYKSRNKNSVA	WASTRES	QQYHRLPLS	n.d. / n.d. / n.d.	3 of 9 (5.16)
KSSQSVLYESRYKNSVA	SASTLES	QQYHRLPLS	n.d. / n.d. / n.d.	0 of 9

Extract of 5 entries:

{"CDR-L1": "KSSQSVLYESRNKNHVA", "CDR-L2": "WASTRRA", "CDR-L3": "QQYHRLPLS", "log10 Kd (nM) by replicate": "n.d. / 3.20 / 3.97", "control signals": "3 of 9 (4.68)"}
{"CDR-L1": "KVSQSVLYESRFKNSVA", "CDR-L2": "WASTRSS", "CDR-L3": "QQYHRLPLS", "log10 Kd (nM) by replicate": "0.18 / 0.48 / 0.29", "control signals": "2 of 9 (4.51)"}
{"CDR-L1": "KSQQSVLYESRNKNFVA", "CDR-L2": "WASTRES", "CDR-L3": "QQYHRLWLS", "log10 Kd (nM) by replicate": "2.38 / 3.24 / n.d.", "control signals": "1 of 9 (3.50)"}
{"CDR-L1": "KSSQSVLYEWRNKGSVA", "CDR-L2": "WASTRSS", "CDR-L3": "QQYHRLPLS", "log10 Kd (nM) by replicate": "2.39 / 1.94 / 2.14", "control signals": "0 of 9"}
{"CDR-L1": "KSSQSVLYESRNKNSVA", "CDR-L2": "WAQTRES", "CDR-L3": "QQYHRLPLG", "log10 Kd (nM) by replicate": "2.36 / 2.00 / 1.63", "control signals": "2 of 9 (3.62)"}

Empty control strains, which show no peptide, gave a signal in 18% of pairings with library AAYL50; the median was 4.19 and 95% of these signals were weaker than 2.99. No background was subtracted. For each scFv, signals with the empty controls are counted beside the result, with their mean in brackets.

Reference: Engelhart et al. 2022, doi:10.1038/s41597-022-01779-4. File: FLAb, binding data.